In patent US7704490B2 (Institut Pasteur, priority 1998, dated 2010):

Tests used:
[1] = test system: STAT; experiment: Electrophoretic mobility shift assay of STAT activation in KIT225 nuclear extracts; assay type: cell-based, human; details: STAT-3 and STAT-5; β-casein, GAS and GIRE probes
Text: The same results were obtained with two other probes (GAS and GIRE).

[2] = test system: mAb 19B11; experiment: ELISA inhibition of mAb 19B11 binding to IL-2 coated plates; parameters: species or system mouse; details: control mAb
[3] = test system: mAb H2-8; experiment: ELISA inhibition of mAb H2-8 binding to IL-2 coated plates; parameters: species or system mouse; details: mAb at about 50% of maximum binding, preincubated with inhibitor
Protocol: Control is represented by non coated plates.
Binding inhibition experiments were performed to further characterize the specificity of mAb H2-8. […] H2-8 was preincubated with different peptides including five decapeptides (1-10, 5-15, 10-20, 15-25, 20-30).

inhibition of the binding of mAb 19B11 to IL-2 [2]: inhibited
inhibition of the binding of mAb H2-8 to IL-2 [3]: able to inhibit
Substance: IL-2: Human IL-2, a protein of 133 amino acids
STAT activation [1]: show a STAT activation
